From PubChem BioAssay AID1466 (National Center for Advancing Translational Sciences (NCATS), 2008)
The list shows a part of the results. Inconclusive results are not listed. The source made the active and inactive calls. Calls follow the shape of the dose curve; as a rule, active = well fitted inhibition curve with a large enough effect; inconclusive = small, poorly fitted or top-dose-only effect, or effect the other way, or another doubt; inactive = no such curve, though single readings can be large or run the other way.

biological target: Lysosomal alpha-glucosidase (Homo sapiens) (UniProt P10253); assay: qHTS Assay for Inhibitors of Human alpha-Glucosidase as a Potential Chaperone Treatment of Pompe Disease; conditions: purified human GAA, 4-MU-alpha-glucoside fluorescence; at 76.9 µM (top of the series);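 also: plate controls were uninhibited enzyme wells for no effect and no-enzyme background for full effect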

| SMILES | activity change, negative = inhibition |
| --- | --- |
| Cc1nc2ccc3ccccc3c2s1.O=[N+]([O-])c1cc([N+](=O)[O-])c(O)c([N+](=O)[O-])c1 | inactive: -12.5% |
| O=[N+]([O-])c1cc([N+](=O)[O-])c(-n2nnc3ccccc32)c([N+](=O)[O-])c1 | inactive: 0.583% |
| CP(=O)(Nc1ccc(SC(F)(F)F)cc1)Oc1ccccc1 (centres undefined) | inactive: -3.85% |
| CCCOc1ccc(NP(C)(=O)Oc2ccc(Cl)cc2)cc1 (centres undefined) | inactive: -0.828% |
| COc1ccccc1OP(C)(=O)Nc1c(C)cccc1C (centres undefined) | inactive: 1.65% |
| CN1CCCCC1COC(=O)C1(O)c2ccccc2CCc2ccccc21 (centres undefined) | inactive: -1.84% |
| CC1=NCCc2c1[nH]c1ccccc21.O=[N+]([O-])c1cc([N+](=O)[O-])c(O)c([N+](=O)[O-])c1 | inactive: -0.819% |
| CP(=O)(Nc1cccc(Br)c1)Oc1ccccc1 (centres undefined) | inactive: 2.55% |
| Cc1cc(C)cc(OP(C)(=O)Nc2ccccn2)c1 (centres undefined) | inactive: 1.1% |
| Cc1ccc(C)c(NP(C)(=O)Oc2ccccc2)c1 (centres undefined) | inactive: -5.91% |
| Cc1cc(C)cc(OP(C)(=O)Nc2ccc(C)cc2C)c1 (centres undefined) | inactive: -3.73% |
| CCOC(=O)c1ccc(NP(C)(=O)Oc2cc(C)cc(C)c2)cc1 (centres undefined) | inactive: -0.0284% |
| CCN(CC)CCCOC(=O)C(O)(c1ccccc1)c1ccccc1 | inactive: 3.66% |
| COc1ccc(OP(C)(=O)Nc2cccc(F)c2)cc1 (centres undefined) | inactive: -4.26% |
| COc1ccccc1OP(C)(=O)Nc1cc(Cl)ccc1C (centres undefined) | inactive: 5.99% |
| Cc1cc(C)cc(OP(C)(N)=O)c1 (centres undefined) | inactive: 1.11% |
| CCOC(=O)c1ccc(NP(C)(=O)Oc2ccccc2)cc1 (centres undefined) | inactive: 4.98% |
| Cc1ccc(NP(C)(=O)Oc2ccccc2)c(C)c1 (centres undefined) | inactive: 3.68% |
| COc1ccccc1OP(C)(=O)Nc1ccc(C)cc1 (centres undefined) | inactive: -5.24% |
| Cc1cccc(C)c1OP(C)(N)=O (centres undefined) | inactive: 2.51% |
| O=[N+]([O-])c1ccc2c(c1)C=Nc1ccccc1O2 | inactive: -11.2% |
| COc1ccccc1OP(C)(=O)Nc1ccccc1 (centres undefined) | inactive: -8.39% |

| SMILES | activity change, negative = inhibition |
| --- | --- |
| CP(=O)(Nc1ccccc1Br)Oc1ccccc1 (centres undefined) | inactive: -0.804% |
| CP(=S)(Nn1cnnc1)Oc1ccccc1 (centres undefined) | inactive: -11.6% |
| CP(=O)(Nc1ccccn1)Oc1ccc(Cl)cc1 (centres undefined) | inactive: -2.47% |
| CCOP(C)(=S)SCC(=O)NC(C)C(=O)O (centres undefined) | inactive: 0.0342% |
| CCOC(=O)c1ccc(NP(C)(=O)Oc2ccc(OC)cc2)cc1 (centres undefined) | inactive: -3.12% |
| Cc1cc(C)cc(OP(C)(=O)Nc2ccc(SC(F)(F)F)cc2)c1 (centres undefined) | inactive: 3.96% |
| CP(=O)(NC(=O)Nc1ccccc1)Oc1ccccc1 (centres undefined) | inactive: 6.59% |
| CP(=O)(Oc1ccccc1)OC(c1ccccc1)C(F)(F)F (centres undefined) | inactive: -4.24% |
| CN(C)C(=O)c1c([N+](=O)[O-])cc([N+](=O)[O-])cc1[N+](=O)[O-] | inactive: 1.49% |
| CP(=O)(Nc1ccc(Cl)cc1)Oc1ccc(F)cc1 (centres undefined) | inactive: 9.27% |
| CC(C)(C)c1ccc(OP(C)(=O)O)cc1 | inactive: 4.32% |
| COc1ccccc1OP(C)(=O)Nc1ccccc1Br (centres undefined) | inactive: -4.47% |
| CCc1ccc(OP(C)(=O)Nc2cccnc2)cc1 (centres undefined) | inactive: 6.5% |
| CP(=O)(Oc1ccccc1)N1CCOC1=O (centres undefined) | inactive: -5.68% |
| COc1ccccc1OP(C)(=O)Nc1c(C)n(C)n(-c2ccccc2)c1=O (centres undefined) | inactive: 2.19% |
| COc1ccc(OP(C)(=O)Nc2ccc(Br)cc2)cc1 (centres undefined) | inactive: 7.43% |
| CCN(CC)CC(O)COC(=O)C(O)(c1ccccc1)C1CCCCC1 (centres undefined) | inactive: 6.4% |
| CP(=O)(OC12CC3CC(CC(C3)C1)C2)OC12CC3CC(CC(C3)C1)C2 | inactive: -9.73% |
| CCOC(=O)c1ccc(NP(C)(=O)Oc2ccc(Cl)cc2)cc1 (centres undefined) | inactive: -7.94% |
| CP(=O)(OCCOc1ccccc1)OCCOc1ccccc1 | inactive: 3.38% |
| CP(=O)(Nc1ccc(Cl)cc1Cl)Oc1ccccc1 (centres undefined) | inactive: -2.71% |
| Cc1nc2ccc3ccccc3c2o1.O=[N+]([O-])c1cc([N+](=O)[O-])c(O)c([N+](=O)[O-])c1 | inactive: -6.44% |

| SMILES | activity change, negative = inhibition |
| --- | --- |
| COc1ccc(OP(C)(=O)Nc2ccccc2Br)cc1 (centres undefined) | inactive: -8.98% |
| COc1ccccc1OP(C)(=O)Nc1ccc(C)c(C)c1 (centres undefined) | inactive: -1.29% |
| Cc1cc(C)cc(OP(C)(=O)Nc2cccc(C(F)(F)F)c2)c1 (centres undefined) | inactive: 7.21% |
| CCc1ccc(OP(C)(=O)O)cc1 | inactive: 4.6% |
| COc1ccccc1OP(C)(=O)Nc1ccc(C)cc1C (centres undefined) | inactive: -3.57% |
| CP(=O)(Nc1ccccn1)Oc1ccccc1 (centres undefined) | inactive: 1.04% |
| O=[N+]([O-])c1cc([N+](=O)[O-])c(Nc2ccccn2)c([N+](=O)[O-])c1 | inactive: 5.71% |
| CN(C)CCOC(=O)C(O)(c1ccccc1)C1CCCC1 (centres undefined) | inactive: 2.05% |
| COc1ccc(OP(C)(=O)Nc2ccccn2)cc1 (centres undefined) | inactive: -6.29% |
| CP(=O)(Nc1ccccc1F)Oc1ccccc1 (centres undefined) | inactive: -0.0979% |
| CP(=O)(Nc1ccccc1)Oc1ccc(F)cc1 (centres undefined) | inactive: -16.5% |
| CCN(CC)CCCOC(=O)C(O)(c1ccccc1)C1CCCCC1 (centres undefined) | inactive: -1.59% |
| COc1ccc(OP(C)(=O)Nc2ccc(SC(F)(F)F)cc2)cc1 (centres undefined) | inactive: -12% |
| CCOC(=O)c1ccc(NP(C)(=O)Oc2ccc(F)cc2)cc1 (centres undefined) | inactive: -5.8% |
| COc1ccc(NP(C)(=O)Oc2ccccc2OC)cc1 (centres undefined) | inactive: -1.05% |
| CN(C)CCOC(=O)C(O)(c1ccccc1)C1CCCCC1 (centres undefined) | inactive: -5.91% |
| COc1ccc(OP(C)(=O)Nc2cccc(Br)c2)cc1 (centres undefined) | inactive: 1.17% |
| Cc1ccccc1NP(C)(=O)Nc1ccccc1C | inactive: 5.48% |
| CP(=O)(Nc1ccc2c(c1)OCCO2)Oc1ccccc1 (centres undefined) | inactive: 0.241% |
| CCOP(C)(=S)SCC(=O)NC(C)(CC)C(=O)O (centres undefined) | inactive: 3.65% |
